ChEMBL document CHEMBL5725956, “Piperazine derivatives as liver X receptor modulators” (2018)

The chains behind the UniProt entries cited, without tags or fusion partners.
UniProt P55055, whole entry: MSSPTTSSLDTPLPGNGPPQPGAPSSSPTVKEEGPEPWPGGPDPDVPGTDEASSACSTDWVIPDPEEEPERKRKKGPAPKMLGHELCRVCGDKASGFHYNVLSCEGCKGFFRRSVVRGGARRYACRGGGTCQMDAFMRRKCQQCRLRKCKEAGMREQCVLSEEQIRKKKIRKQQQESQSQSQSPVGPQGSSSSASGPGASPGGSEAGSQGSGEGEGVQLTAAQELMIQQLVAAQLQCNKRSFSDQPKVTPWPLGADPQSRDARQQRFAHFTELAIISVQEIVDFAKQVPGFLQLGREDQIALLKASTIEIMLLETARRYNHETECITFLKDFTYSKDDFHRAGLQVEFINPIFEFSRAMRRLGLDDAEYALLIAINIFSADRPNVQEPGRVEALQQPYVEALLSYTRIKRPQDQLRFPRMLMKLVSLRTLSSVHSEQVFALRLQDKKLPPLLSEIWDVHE

Biological target: Oxysterols receptor LXR-beta (Homo sapiens, UniProt P55055)

Question: Which EC50 does the source give for `CS(=O)(=O)c1cccc(N2CCN(Cc3ccc(C(F)(F)F)nc3)C(c3ccc(Br)cc3)C2)c1` (centres undefined) here?
Answer: Its EC50 is 1350 nM.

Question: For `CS(=O)(=O)c1cccc(N2CCN(Cc3ccc(C(F)(F)F)nc3)C(c3ccccc3Br)C2)c1` (centres undefined), which EC50 is on record?
Answer: The EC50 was 949 nM.

Question: Which EC50 does the source give for `CC(C)(C)OC(=O)N1CCN(c2cccc(S(C)(=O)=O)c2)CC1c1ccc(Br)cc1` (centres undefined) here?
Answer: Its EC50 is 81 nM.

Question: What about the IC50 of the same molecule?
Answer: Its IC50 is over 50000 nM.
